# Assay results taken from US20250177399A1, “COMBINATION THERAPIES” (MIRATI THERAPEUTICS, INC., priority 2021, published 2025).
# Like-named read-outs stand apart in the source and are kept apart here.
# Legend:
# H2122 tumors [1] = assay: H2122 tumor model, Compound 478 and RO5126766 alone and in combination; assay type: in vivo, nude/nude mice; conditions: Study Day 21; Compound 478 100 mg/kg p.o daily, RO5126766 0.3 mg/kg p.o Q2D
# H2122 tumors [2] = conditions: p.o. daily, Compound 478 100 mg/kg, trametinib 1 mg/kg
# Description: Immunocompromised nude/nude mice were inoculated in the right hind flank with cells or patient derived tumor samples harboring a KRas G12C mutation. When tumor volumes reach between 200-400 mm^3 in size, the mice were divided into four groups of 5-12 mice each. The first group was administered vehicle only. […] The fourth group was orally administered the single agent dose of the KRas G12C inhibitor in combination with the single agent dose of the MEK inhibitor at the matched schedule. […] Tumor volumes were measured using a caliper every two-three days and tumor volumes are calculated by the formula: […].
# For example, twenty nude/nude mice were inoculated in the right hind limb with 5×10^6 H2122 cells.
smiles,measurement,setting,value
C=C(F)C(=O)N1CCN(c2nc(OC[C@@H]3CCCN3C)nc3c2CCN(c2cccc4cccc(Cl)c24)C3)C[C@@H]1CC#N [Compound 478],Average Tumor Volumes of H2122 Tumor Bearing Mice,H2122 tumors [1],343.9594 mm^3
same,Average Tumor Volumes of H2122 Tumor Bearing Mice,H2122 tumors [2]; Study Day 3,282 mm^3
same,Average Tumor Volumes of H2122 Tumor Bearing Mice,H2122 tumors [2]; Study Day 15,252 mm^3
same,Average Tumor Volumes of H2122 Tumor Bearing Mice,H2122 tumors [2]; Study Day 28,276 mm^3
